High-throughput results from PubChem.
This is a sample that favours compounds with a hit; in the whole collection about 1.2% have one here.
Yeast UUG start: modulators of start codon recognition fidelity in yeast; S. cerevisiae UUG-firefly luciferase reporter, luminescence/redox ratio; AID 602363; 350,000 tested, 0.13% active; activity score, % at 18.7 µM;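 active = replicate mean at a twofold rise or more, about +100% in these data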;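 also: firefly luciferase made from a UUG start codon reports start codon fidelity; reporter light over untreated wells divided by growth signal over untreated wells; some hits fall short of that in this replicate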
N-glyco inh: blocks N-linked glycosylation in D54 reporter cells | D54 ERlucT glycosylation luciferase reporter, 24 h; percent of 100 nM tunicamycin response | reporter increase, % at 12.5 µM | hit rate 0.23% among 360,000;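 active = mean luciferase reporter signal, scaled so untreated is 0 and the glycosylation-blocking control 100, at or above a set limit in every replicate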;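 also: luciferase carries N-glycosylation sites so blocking glycosylation raises the light; 0% = median of neutral control wells and 100% = median of 100 nM tunicamycin wells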
Cneo AK release: Cryptococcus neoformans lysis via adenylate kinase release | lysis activity, % at 15 µM | hit rate 0.2% among 360,000 | C. neoformans lysis, adenylate kinase release luminescence, 4 h; normalised: neutral wells 0, clomiphene wells 100 | AID 651654;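 active = mean lysis activity across replicates of at least 80%, whatever share of replicates individually reach that level; inactive = mean lysis activity below 80%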
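Material: C. neoformans cells | Amount: Yeast cell density of 5 × 10^6 cells/mL | Medium: Fresh YPD growth medium | Dosing: Single dose | Times: Static 4 h at 37 °C with compound, 1 h detection | Detection: AK luminescence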
C2C12 statin: suppressors of simvastatin-induced myotoxicity in C2C12 myotubes; hit rate 0.78% among 330,000; ATP luminescence, 48 h; scaled: DMSO 0, geranylgeraniol control 100; AID 602340; rescue of ATP level, % at 7.49 µM;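 active = mean ATP rescue above about 67%, or every replicate alone reaching that limit, limit read from the data, passing the limit was not always enough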;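 also: myotubes were challenged with 10 µM simvastatin during compound exposure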
miR-122 sensor: blocks miR-122 activity in Huh7 sensor cells; Huh7 miR-122 Renilla luciferase sensor, 48 h; neutral wells = 0, positive control = 100; activation (reporter increase), % at 12.5 µM; hit rate 0.3% among 340,000;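 active = mean replicate activation score at least 90 and every replicate individually at or above 90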;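 also: higher luciferase means less miR-122 activity so hits act as miR-122 inhibitors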
* marks the source's active call; other numbers are inactive results; nt = no result; [ ] = remark or other dose.

SMILES	Yeast UUG start	N-glyco inh	Cneo AK release	C2C12 statin	miR-122 sensor
COC(=O)C1=C(N)OC2=C(C(=O)CC(C)(C)C2)C1c1ccoc1 (stereo not drawn)	-24	3	1	98*	-7
Cc1cccc(S(=O)(=O)N(C)C[C@@H]2OCc3ccccc3-c3ccccc3C(=O)N([C@@H](C)CO)C[C@@H]2C)c1	37	nt	1	nt	nt
S=C(NCc1ccncc1)Nc1cc(Cl)cc(Cl)c1	-23	2	-2	7	103*
S=C(NCc1ccncc1)Nc1ccc(Cl)c(Cl)c1	-18	-1	-2	nt	14
C[C@@H]1CN([C@@H](C)CO)C(=O)c2cc(NC(=O)Nc3ccc(F)cc3)ccc2O[C@@H](C)CCCCO[C@@H]1CN(C)C	nt	nt	nt	-28	-4[16.7 µM]
COC(=O)c1cccc(OCC(O)Cn2cnc3cc(C)c(C)cc32)c1 (stereo not drawn)	-1	0	7	2	-10
COC(=O)c1cccc(OCC(O)Cn2ccnc2)c1 (stereo not drawn)	-13	0	0	109*	10
CSCCC(NC(N)=O)C(=O)NCC1CCCCC1 (stereo not drawn)	0	0	2	127*	-2
CSCCC(NC(=O)c1ccco1)C(=O)NCC1CCCCC1 (stereo not drawn)	0	0	-2	13	4
Oc1cccc2cc(Nc3ccccc3)cnc12	-66	-13	9	-30	-5
Oc1cc(Nc2ccccc2)cc2cccnc12	-30	38*	-9	-11	-6
O=C(NCc1ccccc1)c1cccc(COc2cccc(Cl)c2)c1	-4	-3	-1	nt	-19
O=C(NCc1ccccc1)Oc1cccc(Cl)c1	-21	1	1	106*	-3
C[C@@H]1CN([C@H](C)CO)C(=O)c2cc(NC(=O)Nc3ccccc3)ccc2O[C@@H](C)CCCCO[C@@H]1CN(C)Cc1ccc(Cl)c(Cl)c1	6	nt	-11	117*	-3[16.7 µM]
C[C@@H]1CCCCO[C@@H](CN(C)Cc2ccc(Cl)c(Cl)c2)[C@@H](C)CN([C@H](C)CO)C(=O)c2cc(NC(=O)Nc3ccccc3)ccc2O1	-2	-3	42	35	9[16.7 µM]
C[C@@H]1CN([C@H](C)CO)C(=O)c2cc(NC(=O)Cc3ccccc3)ccc2O[C@@H](C)CCCCO[C@H]1CN(C)Cc1ccc(Cl)c(Cl)c1	8	nt	6	-16	-5[16.7 µM]
C[C@@H]1CCCCO[C@@H](CN(C)Cc2ccc(Cl)c(Cl)c2)[C@H](C)CN([C@@H](C)CO)C(=O)c2cc(NC(=O)Cc3ccccc3)ccc2O1	15	nt	-1	106*	-17[16.7 µM]
C[C@H](CO)N1C[C@H](C)[C@@H](CN(C)Cc2ccccc2F)Oc2ncc(C#CCN(C)C)cc2C1=O	-6	nt	-1	8	-6[16.7 µM]
CN1C(=O)c2cc(NS(=O)(=O)c3ccccc3Cl)ccc2OC[C@H]2O[C@@H](CC(=O)O)CC[C@@H]21	-2	nt	-7	6	-5[16.7 µM]
O=C(NNC(=O)c1ccncc1)Nc1ccc(N=Nc2ccccc2)cc1	-21	-1	-7	100*	2
C[C@@H]1CN([C@@H](C)CO)C(=O)Cc2cc(NS(=O)(=O)c3ccccc3)ccc2O[C@H]1CN(C)C(=O)Nc1cccc2ccccc12	29	nt	1	10	13[16.7 µM]
CCC(=O)N1CCc2cc(S(=O)(=O)CCC(=O)NCCc3ccc(OC)c(OC)c3)ccc21	-8	0	0	107*	-4
O=C(O)c1c2c(nc3ccc(S(=O)(=O)N4CCC(C(=O)NCc5ccccc5Cl)CC4)cc13)CCCC2	-14	1	0	77*	3
C[C@H]1CCCCO[C@H](CN(C)C(=O)CCC(F)(F)F)[C@@H](C)CN([C@@H](C)CO)C(=O)c2cc(NC(=O)c3ccccc3)ccc2O1	30	nt	56	nt	-10[16.7 µM]
C[C@@H]1CN([C@@H](C)CO)C(=O)c2cc(C#CC3(O)CCCC3)cnc2O[C@H]1CN(C)C(=O)C1CC1	nt	nt	nt	2	-2[16.7 µM]

Looked up above.
In miR-122 sensor, Oc1cccc2cc(Nc3ccccc3)cnc12 is entered as -5
In N-glyco inh, S=C(NCc1ccncc1)Nc1cc(Cl)cc(Cl)c1 is entered as 2
In Yeast UUG start, C[C@@H]1CCCCO[C@@H](CN(C)Cc2ccc(Cl)c(Cl)c2)[C@@H](C)CN([C@H](C)CO)C(=O)c2cc(NC(=O)Nc3ccccc3)ccc2O1 is entered as -2

(further entries)
SMILES	Yeast UUG start	N-glyco inh	Cneo AK release	C2C12 statin	miR-122 sensor
CCOC(=O)c1cc(=O)n(Cc2ccccc2C)c2ccccc12	-4	-1	-2	103*	-2
Cc1noc(C)c1NC(=O)Nc1ccc2c(c1)C(=O)N([C@H](C)CO)C[C@@H](C)[C@@H](CN(C)S(=O)(=O)c1c(C)noc1C)O2	7	nt	3	nt	-7[16.7 µM]
CCn1c(C)c(C(C)=O)c(N2CCCCC2)nc1=S	-23	3	8	79*	-2
CCn1c(C)c(C(C)=O)c(N2CCC(C(N)=O)CC2)nc1=S	0	1	1	5	-4
CO[C@H]1CN(C)C(=O)c2cc(NC(C)=O)ccc2OC[C@H](C)N(CC2CC2)C[C@H]1C	-8	nt	21	3	nt
C/C(=C\C(=O)C(F)(F)F)Nc1ccc(C)cc1	nt	8	nt	nt	nt
C/C(=C\C(=O)C(F)(F)F)Nc1cc(C)cc(C)c1	-14	6	4	139*	-5
CN1C(=O)c2cc(NC(=O)c3cscn3)ccc2OC[C@@H]2O[C@H](CC(=O)NCc3ccc(Cl)c(Cl)c3)CC[C@H]21	nt	nt	5	-13	-30[16.7 µM]
Cc1ccccc1NC(=O)Nc1ccc2c(c1)C(=O)N(C)[C@H]1CC[C@H](CC(=O)NCC3CC3)O[C@H]1CO2	16	nt	-2	24	228*[16.7 µM]
CN1C(=O)c2cc(NC(=O)c3cscn3)ccc2OC[C@H]2O[C@H](CC(=O)NCc3ccc(Cl)c(Cl)c3)CC[C@H]21	nt	nt	3	78*	-28[16.7 µM]
CN1C(=O)c2cc(NC(=O)Cc3ccccc3)ccc2OC[C@@H]2O[C@H](CC(=O)NCc3ccc(Cl)cc3)CC[C@H]21	11	nt	-2	-43	3[16.7 µM]
Cc1ccccc1NC(=O)Nc1ccc2c(c1)C(=O)N(C)[C@@H]1CC[C@@H](CC(=O)NCC3CC3)O[C@@H]1CO2	21	nt	53	-7	-4[16.7 µM]
CN1C(=O)c2cc(NC(=O)Cc3cccs3)ccc2OC[C@@H]2O[C@@H](CC(=O)NCC3CCCCC3)CC[C@@H]21	3	nt	-2	25	196*[16.7 µM]
CN1C(=O)c2cc(NC(=O)Cc3cccs3)ccc2OC[C@H]2O[C@@H](CC(=O)NCC3CC3)CC[C@H]21	6	nt	-3	3	2[16.7 µM]
CN1C(=O)c2cc(NC(=O)Cc3ccccc3)ccc2OC[C@@H]2O[C@@H](CC(=O)NCc3ccc(Cl)cc3)CC[C@@H]21	7	nt	-3	27	233*[16.7 µM]
CC1CCN(C(=O)COC(=O)c2cccc(S(=O)(=O)N3CCOCC3)c2)CC1	-7	-1	1	6	-4
C/C=C/c1ccc([C@H]2[C@H](CO)N(C(C)=O)[C@H]2CN(C)C(=O)CN(C)C)cc1	3	nt	-1	-1	0[16.7 µM]
Cc1ccc(-c2ccc3c(c2)O[C@H](CN(C)C(=O)C2CCCCC2)[C@H](C)CN([C@@H](C)CO)S3(=O)=O)cc1	nt	nt	nt	-78	-14[16.7 µM]
CN1C(=O)c2cc(NC(=O)NCc3ccccc3)ccc2OC[C@H]2O[C@@H](CC(=O)NCC3CCCCC3)CC[C@H]21	3	nt	-1	-6	7[16.7 µM]

An excerpt of these results, field by field:
> CSCCC(NC(N)=O)C(=O)NCC1CCCCC1 (stereo not drawn)
  Yeast UUG start: 0
  N-glyco inh: 0
  Cneo AK release: 2
  C2C12 statin: 127*
  miR-122 sensor: -2
> CC1CCN(C(=O)COC(=O)c2cccc(S(=O)(=O)N3CCOCC3)c2)CC1
  Yeast UUG start: -7
  N-glyco inh: -1
  Cneo AK release: 1
  C2C12 statin: 6
  miR-122 sensor: -4
> S=C(NCc1ccncc1)Nc1ccc(Cl)c(Cl)c1
  Yeast UUG start: -18
  N-glyco inh: -1
  Cneo AK release: -2
  C2C12 statin: nt
  miR-122 sensor: 14
